This data set has as its system H630 cells. Kind of data set: Colony formation assay.

What is called IC50 is the midpoint of a concentration-inhibition curve.

As to `O=c1[nH]cc(F)c(=O)[nH]1` [FU, 5-fluorouracil], the “inhibition of colony formation from combining IC50 amounts of 3-oxo-C12-HSL and FU” value (H630 cells, FIG. 10 conditions) is on record as “more than 90%”. In addition, where the note is “H630 cells, colony formation”, the “enhancement in the apparent IC50 in the presence of 23 μM 3-oxo-C12-HSL” value is roughly 12 fold. In addition, the IC50 (Homo sapiens, NCI-H630, 336 h, read-out: apparent IC50 of FU in the presence of 23 μM 3-oxo-C12-HSL) stood at 80 nM.

For the origin of these results see US20070010477A1, “Acyl homoserine lactones for inhibition of cell growth” (priority 2005, published 2007).
